By UniProt entry, the sequences of proteins in these tests, tags left out. Residues count along the entry.
UniProt P05177, 2-516 limits assumed: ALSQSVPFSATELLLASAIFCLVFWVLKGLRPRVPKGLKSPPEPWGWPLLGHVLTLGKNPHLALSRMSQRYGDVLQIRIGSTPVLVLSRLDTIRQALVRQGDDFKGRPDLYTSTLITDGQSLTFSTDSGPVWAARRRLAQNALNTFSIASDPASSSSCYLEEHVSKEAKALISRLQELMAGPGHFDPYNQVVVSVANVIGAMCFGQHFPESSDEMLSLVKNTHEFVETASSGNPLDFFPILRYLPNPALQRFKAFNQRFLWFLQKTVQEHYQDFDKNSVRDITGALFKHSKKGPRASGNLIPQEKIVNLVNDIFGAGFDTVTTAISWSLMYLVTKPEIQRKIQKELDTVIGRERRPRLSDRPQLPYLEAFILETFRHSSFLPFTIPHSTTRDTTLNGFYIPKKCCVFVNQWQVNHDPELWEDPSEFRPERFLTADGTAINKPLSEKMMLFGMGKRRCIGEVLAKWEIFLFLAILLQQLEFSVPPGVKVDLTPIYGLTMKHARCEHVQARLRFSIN

In paper PMC2839030 (Chemical research in toxicology, 2010):

Molecular target: human CYP1A2 (Homo sapiens, UniProt P05177)
Test: 7-Methoxyresorufin O-demethylation
Type: biochemical

Row | Structure (SMILES) | IC50
1 | C#Cc1cc2ccccc2c2ccccc12 [Compound 9-Ephen, 9-ethynylphenanthrene] | 400 nM
2 | CC#Cc1cc2ccccc2c2ccccc12 [Compound 9-MEPhen, 9-(1-propynyl)phenanthrene] | 670 nM
